Bioassay records (PubChem)
Giardia killer: kills Giardia lamblia. Giardia lamblia trophozoite viability. activity change, % at 7.66 µM, hits read low. 340,000 tested, 0.15% active; in the data active means activity change below about -80%; inconclusive means between about -30% and that limit;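 further: parasites exposed to compound for two days anaerobically before the ATP read; on the % scale 0 is the no-effect control and ±100 the full control effect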
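Trophozoites 100 cells/well + cpd; 48 hrs, 37 deg C, anaerobic. ATPLite 1-Step added, 15-30 min RT, luminescence read (ATP-based viability).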
ERG Ets-DNA blk: inhibitors of human ERG Ets domain-DNA interaction; fluorescence polarization, His-ERG Ets domain / labelled DNA; Potency, µM (doses to about 76.9 µM), without a hit: at the top dose FP activity, negative = inhibition, usual class: inhibitors; P11308; AID 624246; 370,000 tested, 0.028% active; active means well fitted inhibition curve with a large enough effect in the polarisation, with a control signal flat; inconclusive means small, poorly fitted or top-dose-only effect, or effect the other way, or a change in a side signal; inactive means no such curve, though single readings can be large or run the other way; the % refers to the polarisation;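 further: polarization taken with two DNA probes labelled with fluorescein and Texas red; potency means the concentration at half of the fitted maximal effect; % of control where 0% means no effect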
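His-tagged ERG Ets domain (1 uM in the protein solution; 300mM KCl, 50mM Tris-HCl, 1mM EDTA, 1mM DTT, pH 7.5) received compound, then a probe mix of 5 nM fluorescein-DNA and 100nM Texas-615-DNA. Fluorescence polarization was read for both dyes.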
ALOX12 inh: inhibitors of human 12S-lipoxygenase ALOX12. 580,000 tested, 1.1% active. purified 12hLO, xylenol orange hydroperoxide absorbance. Potency, µM (top dose mostly 108 µM), without a hit: top-dose activity change, negative = inhibition, usual class: inhibitors. P18054; further: potency means the concentration at half of the fitted maximal effect; on the % scale 0 is the no-effect control and ±100 the full control effect
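Hydroperoxide product was detected by ferrous iron/xylenol orange as the 573 to 405 nm absorbance ratio. Arachidonic acid at 40 uM (final) was turned over for 30 min at room temperature by 150 nM human 12hLO, pH 7.0 Hepes buffer, after 15 min compound preincubation.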
miR-21 FLuc: miR-21 reporter, rising signal; HeLa miR-21 FLuc reporter, luciferase, 48 h; Potency, µM (titrated, usually from 38.3 µM), without a hit: top-dose reporter change, positive = more light; AID 2288; 340,000 tested, under 10 active; active = well fitted rising curve with a large enough effect; inconclusive = small, poorly fitted or top-dose-only effect; inactive = no such curve, though single readings can be large or run the other way;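 further: % of control where 0% means no effect; miR-21 action dims this reporter so a rising signal means less miR-21 action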
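Luminescence from a firefly luciferase reporter carrying a miR-21 binding site downstream, stably expressed under a CMV promoter in HeLa cells that make miR-21 endogenously, reports miRNA modulation after 48 h compound exposure up to approximately 40uM final.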
PINK1 modulator: changes PINK1 expression; Potency, µM (doses to about 76.6 µM), without a hit: at the highest dose activation (PINK1 increase), actives largely listed as activators; PINK1 immunofluorescence, high-content cytometry, 24 h; 410,000 tested, 0.2% active; active means well fitted activation curve with a large enough effect; inconclusive means small, poorly fitted or top-dose-only effect; cell line not stated here; further: potency means the concentration at half of the fitted maximal effect; % of control where 0% means no effect; nearly all actives have a fitted effect of over 65% in size
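Cells are seeded, rested 12 hours, then given compound at five concentrations or DMSO for 24 hours. After fixation, blocking and antibody staining, PINK1 amount and mitochondrial localization are scored; CCCP serves as control.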
PTHR1 ag: agonists of human PTHR1 parathyroid hormone receptor. Potency, µM (top dose mostly 115 µM), without a hit: top-dose activation, actives largely listed as activators. 410,000 tested, 0.075% active. Q03431. HEK293 GP2 PTHR1 cells, GloSensor cAMP luminescence, 1 h; further: potency means the concentration at half of the fitted maximal effect; nearly all actives have a fitted effect of over 55% in size
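HEK-293-derived GP2 cells expressing PTHR1 and a GloSensor cAMP reporter, 3,000/well, plated overnight, given luciferin plus IBMX (each 0.5 mM as added) for 1 h at 37 °C, then compound for 1 h at 37 °C. Luminescence was read after 15 min at room temperature.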
* = called active by the depositor; [ ] = remark or other dose. This is a sample that favours compounds with a hit; in the whole collection about 1.3% have one here. Unless noted, the call rests on the fitted dose curve; in most records, active means well fitted curve in the direction sought with a large enough effect; inconclusive means small, poorly fitted or top-dose-only effect, or another doubt; inactive means no such curve, though single readings can be large; an effect the other way counts as inactive or inconclusive.

How did CCOc1ccc(-n2c(-c3ccoc3)nc3ccccc3c2=O)cc1 do in these assays?
Giardia killer: 0; ERG Ets-DNA blk: 8%; ALOX12 inh: 7%; miR-21 FLuc: 1%; PINK1 modulator: 1%[38.3 µM]; PTHR1 ag: inactive

How did CCOc1ccc(-c2c(C)n(-c3ccc(OCC)cc3)c3[n+]2CCCCC3)cc1 do in these assays?
Giardia killer: 15; ERG Ets-DNA blk: 0%; ALOX12 inh: 167%; miR-21 FLuc: inconclusive; PINK1 modulator: 10µM*; PTHR1 ag: -84%

How did Cn1c(O)c(C(=Nc2ccccc2)SCc2ccc(Cl)cc2)c(=O)n(C)c1=O do in these assays?
Giardia killer: 0; ERG Ets-DNA blk: 2%; ALOX12 inh: 16µM*; miR-21 FLuc: 22%; PINK1 modulator: 3%; PTHR1 ag: -24%

Results for Cn1c(O)c(C(=N)COc2ccccc2)c(=O)n(C)c1=O ?
Giardia killer: 9; ERG Ets-DNA blk: -6%; ALOX12 inh: 12%; miR-21 FLuc: -2%; PINK1 modulator: inconclusive; PTHR1 ag: inactive

Results for COC(=O)C1=C(c2ccc(F)cc2OCc2ccccc2)C[C@@H]2CC[C@H]1N2C(=O)NCCO ?
Giardia killer: 1; ERG Ets-DNA blk: 1%; PINK1 modulator: 0%; PTHR1 ag: 0%

What do the screens show for `CCCNc1oc(-c2cccc3ccccc23)nc1C#N`?
Giardia killer: 2; ERG Ets-DNA blk: 4%; ALOX12 inh: inconclusive; miR-21 FLuc: -40%; PINK1 modulator: 3%[38.3 µM]; PTHR1 ag: inactive

What do the screens show for `COc1ccc(CCN(C)Cc2cc(C(C)(C)C)c(O)c(C(C)(C)C)c2)cc1OC`?
ALOX12 inh: 7.9µM*

Results for COc1ccc(CCN(C)Cc2ccncc2)cc1OC ?
Giardia killer: 10; ERG Ets-DNA blk: 1%; ALOX12 inh: inconclusive; miR-21 FLuc: 3%; PINK1 modulator: 3%[38.3 µM]; PTHR1 ag: inactive

How did COC(=O)c1c(C)n(Cc2ccc3c(c2)OCO3)c2ccc(O)cc12 do in these assays?
Giardia killer: -8; ERG Ets-DNA blk: 0%; ALOX12 inh: 13µM*; miR-21 FLuc: 0%; PINK1 modulator: 3%[38.3 µM]; PTHR1 ag: -10%[57.5 µM]

What do the screens show for `CCCn1c(C)c(C(=O)OCc2ccccc2)c2cc(O)ccc21`?
ALOX12 inh: 35µM*

How did CCOC(=O)c1c(C)n(Cc2ccc3c(c2)OCO3)c2ccc(O)cc12 do in these assays?
Giardia killer: 17; ERG Ets-DNA blk: -6%; ALOX12 inh: inconclusive; miR-21 FLuc: -44%; PTHR1 ag: -41%

Results for Cc1ccccc1-n1c(O)c(/C=N/c2nccs2)c(=O)[nH]c1=O ?
Giardia killer: 3; ERG Ets-DNA blk: 4%; ALOX12 inh: inconclusive; miR-21 FLuc: 0%; PINK1 modulator: 3%; PTHR1 ag: 0%

Brought forward from above: three entries; new compounds follow.
What do the screens show for `CCCn1c(C)c(C(=O)OCc2ccccc2)c2cc(O)ccc21`?
ALOX12 inh: 35µM*

How did CCOC(=O)c1c(C)n(Cc2ccc3c(c2)OCO3)c2ccc(O)cc12 do in these assays?
Giardia killer: 17; ERG Ets-DNA blk: -6%; ALOX12 inh: inconclusive; miR-21 FLuc: -44%; PTHR1 ag: -41%

Results for Cc1ccccc1-n1c(O)c(/C=N/c2nccs2)c(=O)[nH]c1=O ?
Giardia killer: 3; ERG Ets-DNA blk: 4%; ALOX12 inh: inconclusive; miR-21 FLuc: 0%; PINK1 modulator: 3%; PTHR1 ag: 0%

Results for COc1ccccc1-c1cc([C@H]2CN3CC[C@H]2C[C@@H]3CNS(=O)(=O)c2cccs2)n(C)n1 ?
ALOX12 inh: 99%

Results for Cc1cc(N2CCNC[C@@H]2C)ccc1N1CCN[C@@H](C)C1 ?
ALOX12 inh: 45µM*

What do the screens show for `Cc1cc(N2CCNC[C@H]2C)ccc1N1CCN[C@H](C)C1`?
ALOX12 inh: 40µM*

How did CC(=O)O.CC(=O)O.[Cd] do in these assays?
PINK1 modulator: 0%

How did NC1=NC(=O)N2CC12 (stereo not drawn) do in these assays?
Giardia killer: -22; ALOX12 inh: 2%; PINK1 modulator: 0%; PTHR1 ag: inactive

Results for O=[S+]1([O-])NCC2(CCN(Cc3ccccc3)C2)Oc2ncccc21 (stereo not drawn) ?
ALOX12 inh: 5%[6.33 µM]

How did COc1ccc(N2C(=O)/C(=C/c3ccc(OC)c(OC)c3)C(=O)NC2=S)cc1 do in these assays?
Giardia killer: 7; ERG Ets-DNA blk: 2%; ALOX12 inh: 50µM*; miR-21 FLuc: 0%; PINK1 modulator: 0%; PTHR1 ag: -10%

What do the screens show for `CCOC(=O)COc1ccc(/C=C2\C(=O)NC(=S)N(c3ccc(OC)cc3)C2=O)cc1OC`?
Giardia killer: -10; ERG Ets-DNA blk: 11%; ALOX12 inh: 0%; miR-21 FLuc: -4%; PINK1 modulator: 1%; PTHR1 ag: -14%

Results for CCOC(=O)c1cccc(-[n+]2c(-c3ccccc3)cc(-c3ccccc3)cc2-c2ccccc2)c1 ?
Giardia killer: -13; ERG Ets-DNA blk: -4%; ALOX12 inh: -20%; PINK1 modulator: 25µM*; PTHR1 ag: -97%

How did CCOC(=O)c1ccc(-[n+]2c(-c3ccccc3)cc(-c3ccccc3)cc2-c2ccccc2)cc1 do in these assays?
Giardia killer: 17; ERG Ets-DNA blk: 2%; PINK1 modulator: inconclusive; PTHR1 ag: inconclusive

Results for COc1ccc(S(=O)(=O)NC[C@H]2C[C@@H]3CCN2C[C@@H]3CN(C)c2ccccc2)cc1 ?
ALOX12 inh: -8%[176 µM]

How did COCCOCCO do in these assays?
ALOX12 inh: -8%[57.4 µM]

What do the screens show for `COc1cc2c(cc1OC)-c1c(OC)c(OC)c(OC)c3ccnc(c13)C2=O`?
Giardia killer: -83*; ERG Ets-DNA blk: 38%; ALOX12 inh: -10%; miR-21 FLuc: -15%; PINK1 modulator: -1%; PTHR1 ag: -12%

Results for COc1cc(CC2(CCc3ccncc3)C(=O)NC(=O)NC2=O)cc(OC)c1OC ?
Giardia killer: -16; ERG Ets-DNA blk: 2%; ALOX12 inh: 1%; miR-21 FLuc: -4%; PINK1 modulator: 4%; PTHR1 ag: 0%

What do the screens show for `COC1(CS(=O)c2ccccc2)CCN(CCc2c[nH]c3ccc(F)cc23)CC1` (stereo not drawn)?
ALOX12 inh: -18%[57.4 µM]

Results for COc1ccc(CN2CCN(C(=O)Cc3ccccc3)CC2)cc1Br ?
Giardia killer: 0; ERG Ets-DNA blk: -1%; ALOX12 inh: 0.63µM*; miR-21 FLuc: 3%; PINK1 modulator: 1%; PTHR1 ag: -11%

What do the screens show for `CCOc1cc(CN2CCN(C(=O)Cc3ccccc3)CC2)ccc1OC`?
Giardia killer: 31; ERG Ets-DNA blk: -16%; ALOX12 inh: 0.5µM*; miR-21 FLuc: 0%; PINK1 modulator: 0%; PTHR1 ag: inactive

What do the screens show for `CCc1ccccc1N1C(=O)CC(=O)NC1=O`?
Giardia killer: 0; ERG Ets-DNA blk: 20%; ALOX12 inh: -17%; miR-21 FLuc: 1%; PINK1 modulator: 1%; PTHR1 ag: inactive

What do the screens show for `COc1ccc(S(=O)(=O)NC[C@H]2C[C@@H]3CCN2C[C@@H]3CN2CCC(Cc3ccccc3)CC2)cc1`?
ALOX12 inh: 20µM*

What do the screens show for `C#C[C@H]1CN2CC[C@H]1C[C@@H]2COC(=O)NCCC`?
ALOX12 inh: 8.9µM*
